For orientation: EC50 means the midpoint of the concentration-response curve.

This assay concerns the target T1, hSIRT1(229-516) (Homo sapiens, UniProt Q96EB6).
T1 sequence (Q96EB6 229-516): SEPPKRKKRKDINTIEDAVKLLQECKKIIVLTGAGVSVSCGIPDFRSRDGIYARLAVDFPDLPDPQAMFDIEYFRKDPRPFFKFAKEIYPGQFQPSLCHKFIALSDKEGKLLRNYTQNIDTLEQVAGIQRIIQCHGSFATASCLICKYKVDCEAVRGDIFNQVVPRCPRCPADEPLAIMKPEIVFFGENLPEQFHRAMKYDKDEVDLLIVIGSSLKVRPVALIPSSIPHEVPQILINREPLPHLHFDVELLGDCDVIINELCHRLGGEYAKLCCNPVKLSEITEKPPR
In words: Deacetylation assay of hSIRT1 catalytic core with CBS peptide (PNC1/GDH coupled assay). Format: biochemical. As for the experimental part:
We also designed a minimal CBS fragment covering only the β-stranded region (642-658), which behaves similarly to the parental CBS peptide.
Final concentrations of the PNC1/GDH coupling system components used were 20 units/mL bovine GDH (Sigma-Aldrich), 1 uM yeast PNC1, 3.4 mM a-ketoglutarate, and 220 μM NADH or NADPH. An extinction coefficient of 6.22 mM^−1 cm^−1 and a pathlength of 0.81 cm was used to convert the absorbance at 340 nm to product concentration for the 150 uL reactions used. […] Quenched reactions were diluted 5-fold with 1:1 acetonitrile:methanol and spun at 5,000×g for 10 minutes to precipitate protein before being analyzed with an Agilent RapidFire 200 High-Throughput Mass Spectrometry System (Agilent, Wakefield. Mass.) coupled to an ABSciex API 4000 mass spectrometer fitted with an electrospray ionization source. The p53-based Ac-p53(W5) (Ac-RHKK^AcW-NH2) and FOXO-3a 21-mer (Ac-[…]^Ac[…]-NH2) peptides were obtained from Biopeptide, Inc. Deacetylation assays used the Ac-p53(W5) substrate unless otherwise noted.
Substrate KM determinations were performed by varying one substrate concentration at a fixed, saturating concentration of the second substrate. SIRT1 activation and inhibition assays were run in reaction buffer with 0.05% BSA at 25° C. and analyzed using the OAcADPr assay. Enzyme and compound were pre-incubated for 20 minutes before addition of substrates. […]

Turning to `CC[C@H](C)[C@H](NC(=O)[C@H](Cc1ccc(O)cc1)NC(=O)[C@H](CCCNC(=N)N)NC(=O)[C@H](CC(N)=O)NC(=O)[C@@H]1CCCN1C(=O)[C@@H]1CCCN1C(=O)[C@H](CC(C)C)NC(=O)[C@H](Cc1ccccc1)NC(=O)[C@H](CC(C)C)NC(=O)[C@H](Cc1ccc(O)cc1)NC(=O)[C@@H](N)CCC(N)=O)C(=O)N[C@@H](Cc1ccccc1)C(=O)N[C@@H](Cc1c[nH]cn1)C(=O)NCC(=O)N[C@@H](C)C(=O)N[C@@H](CCC(=O)O)C(=O)N[C@H](C(=O)N[C@@H](Cc1ccc(O)cc1)C(=O)N[C@@H](CO)C(=O)N[C@@H](CC(=O)O)C(=O)N[C@@H](CO)C(=O)N[C@@H](CCC(=O)O)C(=O)N[C@@H](CC(=O)O)C(=O)N[C@@H](CC(=O)O)C(=O)N[C@H](C(=O)O)C(C)C)C(C)C` [CBS peptide], the “lowering of the KM values for peptide substrate and NAD+ of hSIRT1cc” value is recorded as 4-5 fold. For the setting “hSIRT1cc, read-out: EC50 for restoring the catalytic activity of hSIRT1cc in trans”, the EC50 was found to be 59 nM.
